Test: Lipids/surfactants in ECell: solubility and expansion in PBS (images)
Format: physicochemical
Details: 1% w/w (RGD lipids 0.1%), with and without 2.5% CAB polymer
Procedure: Different surfactants were formulated in expandable (w CAB, Mn 12000) vs non-expandable (w GTH) ECell formulations in a concentration of 1% w/w. Base formulations used: LOIB:CAB:DMSO:Surfactant 66.5:2.5:30:1 (expandable) and LOIB:GTH:DMSO:Surfactant (69:10:20:1) (non-expandable), except formulations with RGD lipids where 0.1% surfactant and 0.9% extra DMSO was added. […] Gel formulations containing each surfactant were prepared in 600 mg aliquots. Only soluble formulations were injected as gel depots into PBS.
Duplicates consisting of 100 μL gel depots of each ECell formulation were injected into 2 mL PBS buffer. Samples were incubated at 37° C., and images of a non-expandable vs an expandable ECell containing the same surfactant side-by-side were taken at 1.5 h and 2 days and 7 days post injection to investigate and document surfactant effects on ECell expansion.

SMILES: CCCCCCCC/C=C\CCCCCCCC(=O)O [Oleic acid]
- appearance of ECell compositions containing the lipid/surfactant: Homogeneous

— US20260174910A1, “POROUS EXPANDING BIOCOMPATIBLE SCAFFOLDS” (DANMARKS TEKNISKE UNIVERSITET, priority 2022, published 2026)
